Data on 1 substance can be found in US20050129680A1, “Antimicrobial activity of antibodies” (priority 2001, published 2005).

A short description of this assay: Antibody/protein UV irradiation with Amplex Red quantitative assay for hydrogen peroxide. Format: biochemical. How it is done: Aliquots (10 μL) were removed at timed intervals throughout the assay. H2O2 concentration was determined by the amplex red method. Each data point is reported as the mean±SEM of at least duplicate measurements: ? polyclonal (poly) immunoglobulin (Ig) G, human; O poly-IgG, horse; ? poly-IgG, sheep; ∇ monoclonal (m) IgG (WD1-6G6), murine; ? poly-IgM, human; ? mIgG (92H2), murine; ¦ β-galactosidase (β-gal); ? chick ovalbumin (OVA); ? a-lactalbumin (a-lact); ? bovine serum albumin (BSA).
Antibody/Protein Irradiation.
Quantitative Assay for Hydrogen Peroxide. An aliquot (20 μl) from the protein solution was removed and added into a well of a 96-well microtiter plate (Costar) containing reaction buffer (80 μl). […] The fluorescence of the well components was then measured using a CytoFluor Multiwell Plate Reader (Series 4000, PerSeptive Biosystems, Framingham, Mass.; Ex/Em: 530/580 nm). The hydrogen peroxide concentration was determined using a standard curve. […]
A suspension of crystals of the Fab fragment of 1D4 (2 μl) was diluted with PBS (198 μl, pH 7.4) and vortexed gently. […] Following UV irradiation for 30 min, Amplex Red working solution (100 μl) was added, and the mixture was viewed on a fluorescence microscope.
Denaturation. […] The concentration of H2O2 was determined after 30 min.

Turning to “β2-microglobulin: member of the immunoglobulin superfamily”, the “generation of H2O2” value is recorded as “does not generate H2O2”.
